Assay results reported in ChEMBL document CHEMBL1153968, “Discovery of 5-pyrrolopyridinyl-2-thiophenecarboxamides as potent AKT kinase inhibitors” (Bioorg Med Chem Lett, 2009).

By UniProt entry, the sequences of proteins in these tests, tags left out.
UniProt Q16539, whole entry: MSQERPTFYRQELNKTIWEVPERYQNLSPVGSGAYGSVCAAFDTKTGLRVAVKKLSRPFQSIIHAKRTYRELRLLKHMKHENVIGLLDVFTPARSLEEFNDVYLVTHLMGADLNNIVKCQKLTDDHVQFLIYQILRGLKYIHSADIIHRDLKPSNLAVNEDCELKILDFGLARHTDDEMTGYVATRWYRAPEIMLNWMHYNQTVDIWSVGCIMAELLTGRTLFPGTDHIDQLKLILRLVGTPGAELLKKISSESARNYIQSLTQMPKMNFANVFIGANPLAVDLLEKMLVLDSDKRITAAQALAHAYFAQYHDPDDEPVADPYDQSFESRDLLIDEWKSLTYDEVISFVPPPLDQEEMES

Target: Mitogen-activated protein kinase 14 (Homo sapiens, UniProt Q16539)
Assay: Inhibition of P38alpha

## NC[C@H](Cc1cccc(F)c1)NC(=O)c1cc(Br)c(-c2ccnc3[nH]ccc23)s1
  IC50: 25 µM
